Literature values as cited in patent EP4729597A1, “LOW-ALCOHOL BEER-LIKE BEVERAGE AND METHOD FOR PRODUCING LOW-ALCOHOL BEER-LIKE BEVERAGE” (Asahi Group Holdings, Ltd., priority 2023, dated 2024).
Where two headings read alike, the source gives them in different places.

For `C=CC(C)(O)CCC=C(C)C` (centres unmarked) [Linalool], the LogP (Table 1, octanol/water partition coefficient) is listed as 3.0 and the LogP (Table 3) is listed as 3.0.
